## Yeast mating assay 2: variants of the scFv Ab-95

The measurements come from Engelhart et al. 2022 (doi:10.1038/s41597-022-01779-4) through the FLAb antibody collection.

Binding partner: SARS-CoV-2 spike HR2 peptide, sequence PDVDLGDISGINAS.

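The starting antibody came from a phage panning campaign against this peptide. The library (AAYL52) carries one to three amino acid substitutions per variant, with no insertions or deletions. In AlphaSeq, yeast of one mating type display the scFv and yeast of the other type display the target. Pairs that bind mate more often; barcode pairs of the diploids are counted by sequencing. Each replicate has its own calibration line, from reference interactions of the BCL2 family. There are three technical replicates.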

Parent scFv Ab-95: VH joined to VL by a 15-residue (Gly4Ser)3 linker. Changes lie in the light chain CDRs alone.
VH: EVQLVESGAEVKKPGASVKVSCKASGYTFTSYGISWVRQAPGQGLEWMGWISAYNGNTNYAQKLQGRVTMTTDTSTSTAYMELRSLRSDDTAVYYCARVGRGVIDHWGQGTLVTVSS
VL: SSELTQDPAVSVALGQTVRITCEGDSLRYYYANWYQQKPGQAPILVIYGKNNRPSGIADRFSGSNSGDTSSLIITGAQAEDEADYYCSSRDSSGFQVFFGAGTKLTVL

Positions count from residue 1 of the parent VL; N33K puts K in place of N. The read-out is the apparent dissociation constant on a log10 scale (nM): the lower, the stronger. Replicates are averaged; those with no signal do not enter the mean. Where no diploid with the target was found in that replicate, the entry reads "ND": below detection, most likely a poor binder, though not proof of it.

changes	log10 Kd, replicates	mean, log10 nM	control signals
N33K S88T G94K	4.04 / 4.97 / ND	4.50	4 of 9 (4.41)
N51K S89Y Q96W	ND / 4.93 / ND	4.93	1 of 9 (2.85)
S26I Y30N S93C	2.75 / 2.63 / 3.17	2.85	3 of 9 (3.29)
A32C G49C S88D	ND / ND / 3.99	3.99	2 of 9 (3.66)
S89P D91Q F95I	2.38 / 2.38 / 2.76	2.51	1 of 9 (4.85)
S26T L27A K50R	3.42 / 4.75 / ND	4.09	2 of 9 (4.70)
D25Y R28W Y29G	2.32 / 2.19 / 1.93	2.15	5 of 9 (3.64)
D25P S88A Q96D	2.92 / 2.59 / 3.57	3.03	1 of 9 (3.11)
Y31N G49P S93G	5.76 / 5.07 / 3.85	4.89	0 of 9
A32S R53W F98D	4.78 / 4.01 / 3.46	4.08	6 of 9 (4.08)
S26H S55F F98R	3.56 / 3.51 / 3.19	3.42	1 of 9 (3.64)
S89L R90Q D91P	4.93 / 4.86 / 4.10	4.63	4 of 9 (3.77)
N33G P54Y F95S	4.23 / ND / ND	4.23	2 of 9 (3.52)
Y29G Y30E D91H	1.69 / 1.86 / 1.36	1.64	4 of 9 (4.56)
K50D N51V G94V	3.78 / 4.57 / 3.27	3.88	3 of 9 (2.96)
G24Q R53L D91R	ND / 5.50 / 4.52	5.01	3 of 9 (4.18)
N33V R90V F98H	ND / ND / 4.25	4.25	1 of 9 (3.65)
S26P R28C N52I	3.43 / ND / 4.59	4.01	2 of 9 (4.47)
G24V S88C	4.12 / 4.54 / 4.19	4.28	1 of 9 (3.78)
Y29W S89F D91Y	3.11 / 2.42 / 4.03	3.18	3 of 9 (3.56)
Y29W N33Y G94C	3.43 / 3.43 / 3.68	3.51	1 of 9 (3.82)
G24K N33F R90V	ND / ND / ND	ND	1 of 9 (3.49)
E23R A32E S89F	ND / ND / ND	ND	3 of 9 (3.61)
Y29V G49A N51I	4.54 / 4.46 / ND	4.50	3 of 9 (4.40)
G49S S55M Q96I	3.83 / ND / ND	3.83	1 of 9 (3.87)
Y29Q S55Q S88R	4.41 / ND / 3.04	3.72	2 of 9 (4.36)
S89K R90K F95W	3.29 / ND / 4.33	3.81	4 of 9 (3.74)
D25N Y30S K50G	0.89 / 0.72 / 0.22	0.61	5 of 9 (3.95)
G24L N51D D91R	ND / ND / ND	ND	2 of 9 (3.40)
E23D N52M R53C	ND / 4.68 / 4.33	4.50	5 of 9 (3.88)
L27R Y29L F98H	ND / ND / ND	ND	0 of 9
G24F S92Y	3.05 / 3.26 / 2.66	2.99	7 of 9 (4.11)
Y30N D91A S92C	1.69 / 1.38 / 0.96	1.34	5 of 9 (4.23)
A32H D91H S93F	ND / 4.21 / ND	4.21	1 of 9 (3.64)

For reference, the parent read 2.31 as the reference entry and 2.25 as a member of this library. Empty control strains, which show no peptide, gave a signal in 28% of pairings with library AAYL52; the median was 3.91 and 95% of these signals were weaker than 2.90. No background was subtracted. The control count says in how many pairings with the empty strains this scFv gave a signal, with their mean in brackets.